According to patent publication US11028058B2, “Heterocyclic compounds as adenosine antagonists” (NUVATION BIO INC., priority 2017, dated 2021):

Molecular target: HEK-293 cells expressing human recombinant adenosine A2A receptor (Homo sapiens (Human), UniProt P29274)
Experiment: cAMP assay, Assay 2 (Eu-cAMP tracer / ULight-anti-cAMP)
Settings: read-out: A2a cAMP IC50
Method: The functional activity of compounds was tested using one of the two assays to detect the present of cAMP. Activation of G-protein coupled receptors (such as A2A) results in activation of adenylcyclase which converts ATP into cAMP which is used as a downstream signaling molecule. Therefore, molecules which act as GPCR (or specifically A2A receptor) antagonists cause a decrease in intracellular cAMP concentration.
Both assays used HEK-293 cells expressing human recombinant adenosine A2A receptor were grown prior to the test in media without antibiotic. Assay 1 (Table B2-1): The cells were detached by gentle flushing with PBS-EDTA (5 mM EDTA), recovered by centrifugation and suspended in assay buffer (KRH: 5 mM KCl, 1.25 mM MgSO4, 124 mM NaCl, 25 mM HEPES, 13.3 mM Glucose, 1.25 mM KH2PO4, 1.45 mM CaCl2, 0.5 g/L BSA, supplemented with Rolipram).
Assay 2 (Table B2-2): 100 nL of test articles at 100× of final concentration were transferred to assay plate by Echo. Cells were washed twice with 5 mL of PBS […]. After aspirating the PBS and adding 1.5 mL versine, cells were incubated at 37° C. for 2-5 min. After centrifugation, 4 mL of medium was added and adjusted cell density to 5,000 cells/well with Stimulation Buffer. […] Plates were read on EnVision.

## Cc1ccn(-c2nc(N)cnc2-c2cc(Cl)c3[nH]cnc3c2)n1
  IC50: 867 nM
